Literature values, collected in paper PMC3627359 (Journal of medicinal chemistry, 2013).

Tested on: ALS
Settings: ALS patients; cited from earlier work

For Nc1nc2ccc(OC(F)(F)F)cc2s1 [riluzole], the Extension of survival is given as 2-3 months.
